Assay results taken from ChEMBL document CHEMBL2163249, “Exploration of natural compounds as sources of new bifunctional scaffolds targeting cholinesterases and beta amyloid aggregation: the case of chelerythrine” (Bioorg Med Chem, 2012).

Experiment: Selectivity ratio of IC50 for human BChE to IC50 for horse BChE

Compound	Ratio IC50
C[C@@H]1CC[C@H]2[C@H](C)[C@H]3CC[C@@]4(O)[C@@H]5CC(=O)[C@H]6CC(=O)CC[C@]6(C)[C@H]5C[C@H]4[C@@H]3CN2C1 [SEVEDINDIONE]	10
COc1cc2c3cc1Oc1c(OC)c(OC)cc4c1[C@@H](Cc1ccc(OC(=O)c5ccc([N+](=O)[O-])cc5)c(c1)Oc1ccc(cc1)C[C@@H]3N(C)CC2)N(C)CC4 [E6 BERBAMINE]	2
